{
  "source": "paper PMC10096175",
  "about": "“An In Vitro Antimicrobial, Anticancer and Antioxidant Activity of N–[(2–Arylmethylthio)phenylsulfonyl]cinnamamide Derivatives” (Molecules, 2023)",
  "assay_in_all_cases": "MTT assay",
  "assay_type_in_all_cases": "cell-based, human",
  "key": {"HeLa cells": {"system": "HeLa cells", "conditions": "IC50 HEK-293 / IC50 HeLa"}, "SKOV-3 cells": {"system": "SKOV-3 cells", "conditions": "IC50 HEK-293 / IC50 SKOV-3"}, "MCF-7 cells": {"system": "MCF-7 cells", "conditions": "IC50 HEK-293 / IC50 MCF-7"}},
  "data": [
    {"compound": "Cc1cc(S(=O)(=O)NC(=O)C=Cc2ccccc2)c(SCc2cccc3ccccc23)cc1Cl", "note": "[Compound 16a, N–[4–Chloro–5–methyl–2–(naphthalen–1–ylmethylthio)benzenesulfonyl]cinnamamide]", "values": [
      {"measurement": "Selectivity index (SI)", "setting": "HeLa cells", "result": 1.0},
      {"measurement": "Selectivity index (SI)", "setting": "SKOV-3 cells", "result": 1.1},
      {"measurement": "Selectivity index (SI)", "setting": "MCF-7 cells", "result": 0.9}
    ]}
  ]
}
